Measured values as given in patent publication EP4840863A1, “FLUORINE-CONTAINING PARTHENOLIDE DERIVATIVE, PREPARATION METHOD THEREFOR AND USE THEREOF” (dated 2026).
Where “and” joins values, the source holds several entries; their conditions need not be identical. Equal values may be shown once. Marks after values point to notes of the source that are not given here.

Legend:
HT-29 = assay: Anticancer activity test (CCK-8), HT-29 cells; details: 72 h, Table 1-1
Protocol: Cells in logarithmic growth phase were digested, centrifuged, and counted; the cell suspension was adjusted to a concentration of 1500-3500 cells/well, and 95 µL was seeded into each well of a 96-well plate.
After continued overnight culture, drugs at different concentrations were added to the plate, with six replicate wells for each concentration. 10 µL of the drug was added to each well, followed by incubation for 72 h. Then, 10 µL of CCK-8 solution was added to each well (care should be taken to avoid generating bubbles in the wells, as they can affect the OD reading). After incubation in the incubator for 1-4 h, the OD value at 450 nm was measured using a microplate reader. The experiment to assess the effect of each drug on each cell line at different time points was repeated three times.
Data were processed using EXCEL software to calculate the inhibition rate at different concentrations, and SPSS was used to fit the IC50 value. EXCEL was used to calculate the mean and standard deviation of the three IC50 values. Inhibition rate % = {1 - (OD value of drug well - OD value of blank well) / (OD value of control well - OD value of blank well) } * 100%. Table 1-1 Activity of Compounds in Inhibiting Cancer Cells

[1] = Distribution of Compound 4 and released Compound 1 in tissues (brain, pancreas, rectum, liver, lung; LC/MS)
Protocol: (1) Forty-eight healthy Bar b/c mice, each weighing approximately 20 g, were taken and divided into 3 groups. Blank control group (6 mice), oral gavage administration group (Compound 4 dose: 50 mg/kg, 21 mice), and tail vein injection administration group (Compound 4 dose: 10 mg/kg, 21 mice) (2) For the oral gavage group, blood samples were collected at 5 min, 15 min, 30 min, 1 h, 3 h, 8 h, and 24 h after administration. For the intravenous injection group, blood samples were collected at 2 min, 5 min, 15 min, 30 min, 1 h, 3 h, 8 h, and 24 h after administration. Blood was collected from mice via eyeball removal and placed in anticoagulant tubes containing sodium heparin. The samples were immediately centrifuged at 5000 rpm at low temperature (4°C) for 10 min to obtain plasma samples. The samples were stored in a -80°C freezer for analysis. Three mice were used per time point. (3) The mouse was fixed on a foam board. The skin on the chest was lifted with forceps, and the thoracic skin and ribs were cut open with scissors to expose the heart and liver. The auricle was then cut open. A syringe needle was inserted into the left ventricle of the mouse, and normal saline was perfused for approximately 1 min (10-20 mL) until the mouse's limbs, liver, and tongue turned pale. Brain collection: The skin on the head was cut open to expose the white skull. The cartilage was cut, the skull cap was carefully pried open to expose the white brain, and the entire brain was dissected out. Tissues such as the pancreas, liver, lung, and rectum were also collected. The samples were stored in a -80°C freezer for analysis. (4) The contents of Compound 4 and Compound 1 in peripheral blood and tissues were detected by LC/MS. MS/MS information

[2] = Brain, po (50 mg/kg) Compound 4
[3] = Liver, po (50 mg/kg) Compound 4
[4] = Pancreas, iv (10mg/kg) Compound 4
[5] = Pancreas, po (50 mg/kg) Compound 4
[6] = Rectum, iv (10mg/kg) Compound 4
[7] = Rectum, po (50 mg/kg) Compound 4
[8] = iv (10 mg/kg) Compound 4, 2 min, Mean
[9] = iv (10 mg/kg) Compound 4, 2 min, individual mice, 10 mg/kg
[10] = iv (10 mg/kg) Compound 4, 5min, Mean
[11] = iv (10 mg/kg) Compound 4, 5min, individual mice, 10 mg/kg
[12] = iv (10 mg/kg) Compound 4, 15min, Mean
[13] = iv (10 mg/kg) Compound 4, 15min, individual mice, 10 mg/kg
[14] = iv (10 mg/kg) Compound 4, 30min, Mean
[15] = iv (10 mg/kg) Compound 4, 30min, individual mice, 10 mg/kg
[16] = iv (10 mg/kg) Compound 4, 1h, Mean
[17] = iv (10 mg/kg) Compound 4, 1h, individual mice, 10 mg/kg
[18] = iv (10 mg/kg) Compound 4, 3h, Mean
[19] = po (50 mg/kg) Compound 4, 5min, Mean
[20] = po (50 mg/kg) Compound 4, 5min, individual mice, 50 mg/kg
[21] = po (50 mg/kg) Compound 4, 15min, Mean
[22] = po (50 mg/kg) Compound 4, 15min, individual mice, 50 mg/kg
[23] = po (50 mg/kg) Compound 4, 30min, Mean
[24] = po (50 mg/kg) Compound 4, 30min, individual mice, 50 mg/kg
[25] = po (50 mg/kg) Compound 4, 1h, Mean
[26] = po (50 mg/kg) Compound 4, 1h, individual mice, 50 mg/kg
[27] = po (50 mg/kg) Compound 4, 3h, Mean
[28] = po (50 mg/kg) Compound 4, 8h, Mean

## CN(C)CC1C(=O)OC2C1CCC(CC(F)(F)F)=CCCC1(C)OC21 (centres unmarked) [Compound 4]
HT-29
  IC50: 4.41 µM
[1]; Brain, iv (10mg/kg) Compound 4
  AUC0-t: 791 ng·h/g
  Fold (AUCtissue/AUCplasma ): 1.80
[1]; [2]
  AUC0-t: 1477 ng·h/g
  Fold (AUCtissue/AUCplasma ): 1.49
[1]; Liver, iv (10mg/kg) Compound 4
  AUC0-t: 1568 ng·h/g
  Fold (AUCtissue/AUCplasma ): 3.58
[1]; [3]
  AUC0-t: 8430 ng·h/g
  Fold (AUCtissue/AUCplasma ): 8.51
[1]; Lung, iv (10mg/kg) Compound 4
  AUC0-t: 933 ng·h/g
  Fold (AUCtissue/AUCplasma ): 2.13
[1]; Lung, po (50 mg/kg) Compound 4
  AUC0-t: 3193 ng·h/g
  Fold (AUCtissue/AUCplasma ): 3.22
[1]; [4]
  AUC0-t: 2523 ng·h/g
  Fold (AUCtissue/AUCplasma ): 5.76
[1]; [5]
  AUC0-t: 5925 ng·h/g
  Fold (AUCtissue/AUCplasma ): 5.98
[1]; [6]
  AUC0-t: 2297 ng·h/g
  Fold (AUCtissue/AUCplasma ): 5.24
[1]; [7]
  AUC0-t: 7281 ng·h/g
  Fold (AUCtissue/AUCplasma ): 7.35
[1]; [8]
  Concentrations in Lung: 2525 ng/g
  Concentrations of Compound 4 in Brain Tissue: 2020 ng/g
  Concentrations of Compound 4 in Liver: 3607 ng/g
  Concentrations of Compound 4 in Pancreatic Tissue: 6657 ng/g
  Concentrations of Compound 4 in the Rectum: 2883 ng/g
[1]; [9]
  Concentrations of Compound 4 in Brain Tissue: 2150 ng/g and 1700 ng/g and 2210 ng/g
  Concentrations of Compound 4 in Liver: 4470 ng/g and 3830 ng/g and 2520 ng/g
  Concentrations of Compound 4 in Pancreatic Tissue: 6130 ng/g and 8060 ng/g and 5780 ng/g
  Concentrations of Compound 4 in the Rectum: 3110 ng/g and 3090 ng/g and 2450 ng/g
[1]; [10]
  Concentrations in Lung: 2374 ng/g
  Concentrations of Compound 4 in Brain Tissue: 1135 ng/g
  Concentrations of Compound 4 in Liver: 3493 ng/g
  Concentrations of Compound 4 in Pancreatic Tissue: 4553 ng/g
  Concentrations of Compound 4 in the Rectum: 4157 ng/g
[1]; [11]
  Concentrations of Compound 4 in Liver: 3140 ng/g and 2940 ng/g and 4400 ng/g
  Concentrations of Compound 4 in Pancreatic Tissue: 3920 ng/g and 3480 ng/g and 6260 ng/g
  Concentrations of Compound 4 in the Rectum: 4450 ng/g and 4120 ng/g and 3900 ng/g
[1]; [12]
  Concentrations in Lung: 841 ng/g
  Concentrations of Compound 4 in Brain Tissue: 859 ng/g
  Concentrations of Compound 4 in Liver: 1403 ng/g
  Concentrations of Compound 4 in Pancreatic Tissue: 2130 ng/g
  Concentrations of Compound 4 in the Rectum: 1780 ng/g
[1]; [13]
  Concentrations in Lung: 564 ng/g and 1460 ng/g and 498 ng/g
  Concentrations of Compound 4 in Liver: 1110 ng/g and 1470 ng/g and 1630 ng/g
  Concentrations of Compound 4 in Pancreatic Tissue: 1730 ng/g and 2320 ng/g and 2340 ng/g
  Concentrations of Compound 4 in the Rectum: 1660 ng/g and 2060 ng/g and 1620 ng/g
[1]; [14]
  Concentrations in Lung: 488 ng/g
  Concentrations of Compound 4 in Brain Tissue: 90.0 ng/g
  Concentrations of Compound 4 in Liver: 789 ng/g
  Concentrations of Compound 4 in Pancreatic Tissue: 1376 ng/g
  Concentrations of Compound 4 in the Rectum: 1841 ng/g
[1]; [15]
  Concentrations in Lung: 532 ng/g and 475 ng/g and 456 ng/g
  Concentrations of Compound 4 in Brain Tissue: 81.1 ng/g and 65.8 ng/g and 123 ng/g
  Concentrations of Compound 4 in Liver: 636 ng/g and 932 ng/g and 798 ng/g
  Concentrations of Compound 4 in Pancreatic Tissue: 938 ng/g and 1440 ng/g and 1750 ng/g
[1]; [16]
  Concentrations in Lung: 122 ng/g
  Concentrations of Compound 4 in Brain Tissue: 253 ng/g
  Concentrations of Compound 4 in Liver: 284 ng/g
  Concentrations of Compound 4 in Pancreatic Tissue: 489 ng/g
  Concentrations of Compound 4 in the Rectum: 451 ng/g
[1]; [17]
  Concentrations of Compound 4 in Brain Tissue: 249 ng/g and 278 ng/g and 232 ng/g
  Concentrations of Compound 4 in Liver: 221 ng/g and 245 ng/g and 387 ng/g
  Concentrations of Compound 4 in Pancreatic Tissue: 439 ng/g and 359 ng/g and 669 ng/g
  Concentrations of Compound 4 in the Rectum: 455 ng/g and 369 ng/g and 529 ng/g
[1]; [18]
  Concentrations in Lung: 15.8 ng/g
  Concentrations of Compound 4 in Brain Tissue: 5.01 ng/g
  Concentrations of Compound 4 in Liver: 34.8 ng/g
  Concentrations of Compound 4 in Pancreatic Tissue: 38.2 ng/g
  Concentrations of Compound 4 in the Rectum: 53.9 ng/g
[1]; iv (10 mg/kg) Compound 4, 8h, individual mice
  Concentrations of Compound 4 in Liver: 0.91* ng/g
[1]; [19]
  Concentrations in Lung: 3843 ng/g
  Concentrations of Compound 4 in Brain Tissue: 1730 ng/g
  Concentrations of Compound 4 in Liver: 22633 ng/g
  Concentrations of Compound 4 in Pancreatic Tissue: 7897 ng/g
  Concentrations of Compound 4 in the Rectum: 3463 ng/g
[1]; [20]
  Concentrations in Lung: 3110 ng/g and 4400 ng/g and 4020 ng/g
  Concentrations of Compound 4 in Brain Tissue: 1230 ng/g and 2260 ng/g and 1700 ng/g
  Concentrations of Compound 4 in Liver: 26900 ng/g and 16300 ng/g and 24700 ng/g
  Concentrations of Compound 4 in Pancreatic Tissue: 8960 ng/g and 5740 ng/g and 8990 ng/g
  Concentrations of Compound 4 in the Rectum: 2130 ng/g and 5040 ng/g and 3220 ng/g
[1]; [21]
  Concentrations in Lung: 3193 ng/g
  Concentrations of Compound 4 in Brain Tissue: 2047 ng/g
  Concentrations of Compound 4 in Liver: 8383 ng/g
  Concentrations of Compound 4 in Pancreatic Tissue: 5220 ng/g
  Concentrations of Compound 4 in the Rectum: 3510 ng/g
[1]; [22]
  Concentrations in Lung: 2720 ng/g and 3050 ng/g and 3810 ng/g
  Concentrations of Compound 4 in Brain Tissue: 2450 ng/g and 2220 ng/g and 1470 ng/g
  Concentrations of Compound 4 in Liver: 9670 ng/g and 8820 ng/g and 6660 ng/g
  Concentrations of Compound 4 in Pancreatic Tissue: 4910 ng/g and 5730 ng/g and 5020 ng/g
  Concentrations of Compound 4 in the Rectum: 5970 ng/g and 2390 ng/g and 2170 ng/g
[1]; [23]
  Concentrations in Lung: 1416 ng/g
  Concentrations of Compound 4 in Brain Tissue: 1088 ng/g
  Concentrations of Compound 4 in Liver: 4913 ng/g
  Concentrations of Compound 4 in Pancreatic Tissue: 4750 ng/g
  Concentrations of Compound 4 in the Rectum: 4830 ng/g
[1]; [24]
  Concentrations of Compound 4 in Brain Tissue: 1040 ng/g and 763 ng/g and 1460 ng/g
  Concentrations of Compound 4 in Liver: 2750 ng/g and 5260 ng/g and 6730 ng/g
  Concentrations of Compound 4 in the Rectum: 5940 ng/g and 2960 ng/g and 5590 ng/g
[1]; [25]
  Concentrations in Lung: 724 ng/g
  Concentrations of Compound 4 in Brain Tissue: 217 ng/g
  Concentrations of Compound 4 in Liver: 762 ng/g
  Concentrations of Compound 4 in Pancreatic Tissue: 793 ng/g
  Concentrations of Compound 4 in the Rectum: 767 ng/g
[1]; [26]
  Concentrations in Lung: 1150 ng/g and 557 ng/g and 466 ng/g
  Concentrations of Compound 4 in Liver: 1220 ng/g and 412 ng/g and 655 ng/g
  Concentrations of Compound 4 in Pancreatic Tissue: 1290 ng/g and 486 ng/g and 602 ng/g
  Concentrations of Compound 4 in the Rectum: 1250 ng/g and 630 ng/g and 422 ng/g
[1]; [27]
  Concentrations in Lung: 172 ng/g
  Concentrations of Compound 4 in Brain Tissue: 42.4 ng/g
  Concentrations of Compound 4 in Liver: 262 ng/g
  Concentrations of Compound 4 in Pancreatic Tissue: 305 ng/g
  Concentrations of Compound 4 in the Rectum: 938 ng/g
[1]; [28]
  Concentrations of Compound 4 in Brain Tissue: 2.5 ng/g
  Concentrations of Compound 4 in Liver: 3.7 ng/g
  Concentrations of Compound 4 in Pancreatic Tissue: 4.13 ng/g
  Concentrations of Compound 4 in the Rectum: 25.6 ng/g
[1]; po (50 mg/kg) Compound 4, 24h, Mean
  Concentrations of Compound 4 in Liver: 13 ng/g
[1]; po (50 mg/kg) Compound 4, 24h, individual mice
  Concentrations of Compound 4 in Liver: 13 ng/g
